Only some compounds are listed: those with a hit (about 2.2% of all), similar ones and a draw of the others.
Yeast UUG start = modulators of start codon recognition fidelity in yeast; AID 602363; activity score, % at 18.7 µM; S. cerevisiae UUG-firefly luciferase reporter, luminescence/redox ratio; 0.13% of 350,000 active;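 active = replicate mean at a twofold rise or more, about +100% in these data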;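 note: firefly luciferase made from a UUG start codon reports start codon fidelity; reporter light over untreated wells divided by growth signal over untreated wells; some hits fall short of that in this replicate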
ERp5 inh = ERp5 (human) disulfide isomerase inhibition | AID 651711 | ERp5 insulin aggregation, absorbance 650 nm, 90 min | 350,000 tested, 0.05% active | inhibition, % at 9.99 µM;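 active = mean replicate inhibition above about 25%, with every replicate also reaching it, limit read from the data, passing the limit was not always enough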
FGF22 binding = shifts melting point of recombinant human FGF22; Q9HCT0; recombinant FGF22 thermal shift, SYPRO orange fluorescence; percent of sucrose octasulfate shift, DMSO zero; activity (Tm shift, normalised), % at 9.99 µM; 340,000 tested, 1.5% active;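 active = mean Tm shift, scaled 0 neutral to 100 positive control, at about 1.3% or above, every replicate too, limit read from the data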
SIRT5 block = blocks human SIRT5 desuccinylation of peptide. Q9NXA8. Purified SirT5, succinyl-peptide AMC, trypsin-coupled fluorescence. inhibition, % at 15 µM. 330,000 tested, 1.1% active; in the data active = inhibition above about 15%
S100A4 inh HTS = inhibitors of human S100A4 binding to myosin IIA peptide; S100A4/TAMRA-MyoIIA peptide fluorescence polarization; AID 652163; P26447; 360,000 tested, 0.14% active; inhibition, % at 10.7 µM;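 active = mean inhibition of at least 70% across replicates, with every replicate also reaching that level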
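Test system – S100A4 monomer (human) · Compound – single-point compound testing · Schedule – 5 min incubation before reading · Probe or stimulus – TAMRA-labelled myosin IIA heavy-chain peptide probe, 5 nM · Benchmarks – neutral control DMSO, positive control TFP · Medium – Calcium-containing HEPES buffer, pH 7.2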
PDI turbidity = blocks human protein disulfide isomerase activity; P07237; inhibition, % at 10 µM; AID 588391; 350,000 tested, 0.052% active; PDI insulin aggregation turbidity, A650, 90 min;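 active = mean inhibition across replicates of 30% or more, whatever share of single replicates reach that level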
An asterisk follows results filed as active; ! = repeats disagree.

`Cc1ccc(S(=O)(=O)NC(C)(C)CN2CCC(Cc3ccccc3)CC2)cc1` gave Yeast UUG start 7, ERp5 inh 4, FGF22 binding 44*, SIRT5 block 0, S100A4 inh HTS 0 and PDI turbidity 0.
Screening COc1cccc(NC(=S)Nc2cc(C(=O)O)ccc2N2CC3CC(C2)c2cccc(=O)n2C3)c1 (stereo not drawn) returned ERp5 inh 4, FGF22 binding 3.3*, SIRT5 block 2, S100A4 inh HTS -3 and PDI turbidity 1.
`CS(=O)(=O)c1ccc2nc(NC(=O)c3cc(-c4ccccc4)nn3-c3ccccc3)sc2c1` gave Yeast UUG start -11, ERp5 inh -2, FGF22 binding 43*, SIRT5 block -2, S100A4 inh HTS 1 and PDI turbidity -7.
For CS(=O)(=O)c1ccc2nc(NC(=O)C3=NN(c4ccccc4)C(=O)CC3)sc2c1 the results were Yeast UUG start 4, ERp5 inh -4, FGF22 binding 0, SIRT5 block 3, S100A4 inh HTS -5 and PDI turbidity -2.
`Cn1c(CN2CCN(C(=O)c3ccccc3Cl)CC2)nc2cc([N+](=O)[O-])ccc21` gave Yeast UUG start -23, ERp5 inh 4, FGF22 binding 44*, SIRT5 block 0, S100A4 inh HTS 7 and PDI turbidity -17.
For O=C(C[C@@H]1CC[C@@H](NC(=O)CN2CCOCC2)[C@H](CO)O1)NCCc1ccccc1 the results were Yeast UUG start -9, ERp5 inh 0, FGF22 binding 0, SIRT5 block -6 and S100A4 inh HTS -52.
For C=CCN(c1ccccc1)S(=O)(=O)c1cccc(C(=O)Nc2ccncc2)c1 the results were Yeast UUG start 0, ERp5 inh 5, FGF22 binding 0, SIRT5 block 19*, S100A4 inh HTS 4 and PDI turbidity 2.
Cn1c(SCc2ccccc2)nnc1-c1ccncc1 was read as Yeast UUG start -17, ERp5 inh 8, FGF22 binding 0, SIRT5 block -3, S100A4 inh HTS -2 and PDI turbidity 9.
Cn1c(SCc2cccc(F)c2)nnc1-c1ccncc1 was read as Yeast UUG start -5, ERp5 inh 1, FGF22 binding 0, SIRT5 block 15*, S100A4 inh HTS 0 and PDI turbidity 9.
For C[C@H]1CN([C@@H](C)CO)C(=O)c2cc(NC(=O)NC3CCCCC3)ccc2O[C@@H]1CN(C)C(=O)Nc1ccccc1 the results were Yeast UUG start 15, ERp5 inh 4, FGF22 binding 0, SIRT5 block 5 and S100A4 inh HTS 157*.
C[C@H]1CN([C@@H](C)CO)C(=O)c2cc(NC(=O)NC3CCCCC3)ccc2O[C@H]1CN(C)C(=O)Nc1ccccc1 was read as Yeast UUG start 15, ERp5 inh 9, FGF22 binding 0 and S100A4 inh HTS -3.
C[C@@H]1CN([C@@H](C)CO)C(=O)c2cc(NC(=O)Nc3ccc(C(F)(F)F)cc3)ccc2O[C@H]1CN(C)C(=O)Nc1ccccc1 was read as Yeast UUG start 7, ERp5 inh -4, FGF22 binding 0, SIRT5 block 6 and S100A4 inh HTS 1.
C[C@@H]1CN([C@@H](C)CO)C(=O)c2cc(NC(=O)Nc3ccc(F)cc3)ccc2O[C@H]1CN(C)C(=O)Nc1ccc(F)cc1 was read as Yeast UUG start 1, ERp5 inh -2, FGF22 binding 0, SIRT5 block -3 and S100A4 inh HTS -1.
For C[C@H](CO)N1C[C@H](C)[C@@H](CN(C)C(=O)Nc2ccc(C(F)(F)F)cc2)Oc2ccc(NC(=O)Nc3ccccc3)cc2C1=O the results were Yeast UUG start 9, ERp5 inh 3, FGF22 binding 19*!, SIRT5 block 2, S100A4 inh HTS -17 and PDI turbidity -5.
C[C@H]1CN([C@@H](C)CO)C(=O)c2cc(NS(=O)(=O)c3ccc(F)cc3)ccc2O[C@H]1CN(C)C(=O)Nc1ccc(C(F)(F)F)cc1 was read as Yeast UUG start 7, ERp5 inh 2, FGF22 binding 0, SIRT5 block 2 and S100A4 inh HTS 8.
Screening Cc1ccc(S(=O)(=O)Nc2ccc3c(c2)C(=O)N([C@@H](C)CO)C[C@H](C)[C@@H](CN(C)C(=O)Nc2ccc(C(F)(F)F)cc2)O3)cc1 returned Yeast UUG start 0, ERp5 inh -1, FGF22 binding 0, SIRT5 block 16* and S100A4 inh HTS 4.
C[C@H](CO)N1C[C@H](C)[C@H](CN(C)C(=O)Nc2ccc(F)cc2)Oc2ccc(NC(=O)Nc3ccc(F)cc3)cc2C1=O was read as Yeast UUG start 0, ERp5 inh 0, FGF22 binding 0, SIRT5 block 24* and S100A4 inh HTS -5.
CCCNC(=O)N1C[C@@H](C)[C@H](OC)CN(C)C(=O)c2ccc(NC(C)=O)cc2OC[C@H]1C was read as ERp5 inh 1, SIRT5 block 2 and S100A4 inh HTS -2.
Screening C[C@@H]1CN([C@H](C)CO)C(=O)c2cc(NC(=O)Nc3ccc(C(F)(F)F)cc3)ccc2O[C@@H](C)CCCCO[C@@H]1CN(C)Cc1ccc(Cl)c(Cl)c1 returned Yeast UUG start -10, ERp5 inh -3, FGF22 binding 0, SIRT5 block -2 and S100A4 inh HTS 5.
Screening COc1ccc(NC(=O)Nc2ccc3c(c2)C(=O)N([C@H](C)CO)C[C@@H](C)[C@@H](CN(C)C(=O)Nc2ccc(C(F)(F)F)cc2)O3)cc1 returned Yeast UUG start -9, ERp5 inh -3, FGF22 binding 0, SIRT5 block 15* and S100A4 inh HTS -26.

Pulled by structure from the list above:
Screening Cc1ccc(S(=O)(=O)Nc2ccc3c(c2)C(=O)N([C@@H](C)CO)C[C@H](C)[C@@H](CN(C)C(=O)Nc2ccc(C(F)(F)F)cc2)O3)cc1 returned Yeast UUG start 0, ERp5 inh -1, FGF22 binding 0, SIRT5 block 16* and S100A4 inh HTS 4.
C[C@@H]1CN([C@@H](C)CO)C(=O)c2cc(NC(=O)Nc3ccc(C(F)(F)F)cc3)ccc2O[C@H]1CN(C)C(=O)Nc1ccccc1 was read as Yeast UUG start 7, ERp5 inh -4, FGF22 binding 0, SIRT5 block 6 and S100A4 inh HTS 1.

The results go on:
For C[C@@H]1CN([C@H](C)CO)C(=O)c2cc(NC(=O)Nc3ccc(C(F)(F)F)cc3)ccc2O[C@@H]1CN(C)C(=O)Nc1ccc(C(F)(F)F)cc1 the results were Yeast UUG start 10, ERp5 inh -2, FGF22 binding 0, SIRT5 block 6 and S100A4 inh HTS 106*.
C[C@H]1CN([C@@H](C)CO)C(=O)c2cc(-c3ccc(C#N)cc3)cnc2O[C@@H]1CN(C)C(=O)Nc1ccc(C(F)(F)F)cc1 was read as ERp5 inh 3, FGF22 binding 0, SIRT5 block 19* and S100A4 inh HTS 51.
For C[C@H](O)C#Cc1ccc2c(c1)O[C@@H](CN(C)CC1CCOCC1)[C@@H](C)CN([C@@H](C)CO)S2(=O)=O the results were Yeast UUG start -8 and FGF22 binding 0.
`C[C@@H]1CN([C@@H](C)CO)S(=O)(=O)c2ccc(C#CC3CC3)cc2O[C@H]1CN(C)C(=O)C1CCCCC1` gave Yeast UUG start -2.
Screening CCCN(CCC)CCN1CCN(C(=O)[C@H](CCc2ccccc2)NC(=O)[C@H]2O[C@@H](n3cnc4c(N)ncnc43)[C@H](O)[C@@H]2O)CC1 returned ERp5 inh 3, FGF22 binding 0, SIRT5 block 29* and S100A4 inh HTS -16.

Source: PubChem BioAssay
